Some tests of the compounds listed are not included; inactive here does not mean inactive elsewhere.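 All cell lines were grown in 96-well plates and treated with compound for 48 hours. GI50 marks 50% less growth.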
Key:
Experiment in all cases: NCI anticancer screen, dose series, 48 h; in the data active = GI50 below about 0.43 µM; inactive = the rest
[1] = test system: SK-MEL-5 melanoma
[2] = test system: SK-MEL-28 melanoma
[3] = test system: NCI-H23 lung
[4] = test system: LOX IMVI melanoma
[5] = test system: HCC-2998 colon
[6] = test system: NCI-H522 lung
[7] = test system: M14 melanoma
[8] = test system: CAKI-1 renal
[9] = test system: MDA-N
[10] = test system: MOLT-4 leukemia
[11] = test system: HL-60(TB) leukemia
[12] = test system: MALME-3M melanoma
[13] = test system: K-562 leukemia
[14] = test system: RXF 393 renal
[15] = test system: SNB-75 CNS
[16] = test system: UACC-257 melanoma
[17] = test system: NCI/ADR-RES ovarian
[18] = test system: HCT-15 colon
[19] = test system: OVCAR-5 ovarian
[20] = test system: IGROV1 ovarian
[21] = test system: DU-145 prostate
[22] = test system: ACHN renal
[23] = test system: RPMI-8226 leukemia
[24] = test system: TK-10 renal
[25] = test system: SN12C renal
[26] = test system: MCF7 breast
[27] = test system: U251 CNS
[28] = test system: EKVX NSCLC
[29] = test system: SK-OV-3 ovarian
[30] = test system: KM12 colon
[31] = test system: SNB-19 CNS
[32] = test system: COLO 205 colon
[33] = test system: 786-0 renal
[34] = test system: SF-539 CNS
[35] = test system: HCT-116 colon
[36] = test system: SW-620 colon
[37] = test system: NCI-H226 lung
[38] = test system: HT29 colon
[39] = test system: SF-268 CNS
[40] = test system: SR leukemia
[41] = test system: PC-3 prostate
[42] = test system: MDA-MB-231 breast
[43] = test system: SF-295 CNS
[44] = test system: CCRF-CEM leukemia
[45] = test system: A549 NSCLC
[46] = test system: T-47D breast
[47] = test system: OVCAR-3 ovarian
[48] = test system: OVCAR-8 ovarian
[49] = test system: UO-31 renal
[50] = test system: HOP-62 NSCLC
[51] = test system: UACC-62 melanoma

Measured: GI50

CN1CCC(OC(=O)C2(O)c3ccccc3Oc3ccccc32)CC1
inactive: [1] > 100 µM | [2] > 100 µM | [3] > 100 µM | [4] > 100 µM | [5] > 100 µM | [6] > 100 µM | [7] > 100 µM | [8] > 100 µM | [9] > 100 µM | [10] > 100 µM | [11] > 100 µM | [12] > 100 µM | [13] > 100 µM | [14] > 100 µM | [15] > 100 µM | [16] > 100 µM | [17] > 100 µM | [18] > 100 µM | [19] > 100 µM | [20] > 100 µM | [21] > 100 µM | [22] > 100 µM | [23] > 100 µM | [24] > 100 µM | [25] > 100 µM | [26] > 100 µM | [27] > 100 µM | [28] > 100 µM | [29] > 100 µM | [30] > 100 µM | [31] > 100 µM | [32] > 100 µM | [33] > 100 µM | [34] > 100 µM | [35] > 100 µM | [36] > 100 µM | [37] > 100 µM | [38] > 100 µM | [39] > 100 µM | [40] > 100 µM | [41] > 100 µM | [42] > 100 µM | [43] > 100 µM | [44] > 100 µM | [45] > 100 µM | [46] > 100 µM | [47] > 100 µM | [48] > 100 µM | [49] > 100 µM | [50] > 100 µM | [51] > 100 µM

— PubChem BioAssay (NCI)
